“And” between values parts separate entries of the source, which are not always exact repeats. Identical values can stand only once. The list shows a part of the results, in another mix than the full data. The source made the active and inactive calls.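 The calls were made as follows: active = activation of at least 60% and not above a set upper limit (about 1 call in 100 departs from these limits); inconclusive = activation of 40% to 60%, or above that upper limit; inactive = activation under 40%.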

Protein sequences, listed by entry. Tags and fused reporters are not part of them. Lines headed by an entry give the natural chain unless they say otherwise; changes in a name come on top.
UniProt O75388: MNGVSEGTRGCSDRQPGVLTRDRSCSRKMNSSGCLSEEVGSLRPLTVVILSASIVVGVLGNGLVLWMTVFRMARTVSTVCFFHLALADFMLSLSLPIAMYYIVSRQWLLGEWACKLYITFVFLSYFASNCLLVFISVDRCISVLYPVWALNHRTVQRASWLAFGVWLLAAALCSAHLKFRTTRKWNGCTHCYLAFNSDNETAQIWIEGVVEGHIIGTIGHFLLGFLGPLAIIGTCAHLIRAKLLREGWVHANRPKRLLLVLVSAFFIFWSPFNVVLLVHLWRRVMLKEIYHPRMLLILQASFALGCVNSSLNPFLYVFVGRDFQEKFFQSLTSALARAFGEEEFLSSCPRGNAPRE

The experiment has as its target Probable G-protein coupled receptor 32 (Homo sapiens) (UniProt O75388). Briefly: qHTS for Agonists of Human Resolvin D1 Receptor DRV1. Also: 0% is about no effect. The settings on record: CHO-K1 GPR32 beta-arrestin PathHunter luminescence, 90 min; at 76.9 µM; active compounds read high; zero percent set by DMSO-only wells.
Turning to `CCNC(C)Cc1ccc2c(c1)OCO2` (stereo not given), the activation was inactive: 5.81%.

On to `CN(C(=O)Cc1ccc(Cl)c(Cl)c1)[C@H]1CCCC[C@@H]1N1CCCC1`, for which the activation is inactive: -9.25% and inactive: -9.14%.

Turning to `Cc1cc([N+](=O)[O-])cc([N+](=O)[O-])c1O`, the activation was inactive: -92%.

As to `CN(C(=O)Cc1ccccc1)[C@H]1CC[C@@]2(CCCO2)C[C@@H]1N1CCCC1`, the activation is inactive: -29.6%.

Consider `CN(C(=O)Cc1ccc(Cl)c(Cl)c1)[C@@H]1CCCC[C@@H]1N1CCCC1`, for which the activation is inactive: -2.77%.

As for `CN(C(=O)Cc1ccc(Cl)c(Cl)c1)[C@@H]1CC[C@]2(CCCO2)C[C@H]1N1CCCC1`, the activation is inactive: -13.6%.

In the case of `CN(C(=O)Cc1ccc(Cl)c(Cl)c1)[C@H]1CC[C@@]2(CCCO2)C[C@@H]1N1CCCC1`, the activation is inactive: -1.05%.

For the compound `CN(C(=O)Cc1ccccc1)[C@@H]1CC[C@]2(CCCO2)C[C@H]1N1CCCC1`, the activation was inactive: -4.53%.

Take `NC(=O)Nc1ccc([As](=O)(O)O)cc1`: the activation was inactive: -6.13%.

In the case of `CN(CCCl)Cc1cc(Cl)c(NC2=NCCN2)c(Cl)c1`, the activation is inactive: 3.41%.

The record behind these values is PubChem BioAssay AID1346428 (National Center for Advancing Translational Sciences (NCATS), 2018).
